Molecular target: Thymidylate synthase (Escherichia coli (strain K12), UniProt P0A884)
Conditions: IC50 (nM)

Amino acid sequences for entries named in this document (tags omitted). A change or cut given only in a name is not applied to a line headed by its entry.
UniProt P0A884: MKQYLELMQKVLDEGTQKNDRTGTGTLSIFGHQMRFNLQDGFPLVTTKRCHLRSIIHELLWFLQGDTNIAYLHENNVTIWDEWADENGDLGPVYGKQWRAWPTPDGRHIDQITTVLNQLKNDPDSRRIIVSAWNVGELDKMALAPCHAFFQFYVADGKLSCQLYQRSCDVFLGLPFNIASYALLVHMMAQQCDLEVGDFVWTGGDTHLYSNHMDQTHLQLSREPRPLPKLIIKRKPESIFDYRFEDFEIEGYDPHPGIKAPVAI

How did the IC50 turn out when `Cc1nc2ccc(CN(C)c3ccc(C(=O)N[C@@H](CCC(=O)O)C(=O)O)s3)cc2c(=O)[nH]1` [(2S)-2-[(5-{methyl[(2-methyl-4-oxo-1,4-dihydroquinazolin-6-yl)methyl]amino}thiophen-2-yl)formamido]pentanedioic acid] was run?
Its IC50 is 5700 nM.

— BindingDB's records for doi:10.1021/jm058234m (Duquesne University, 2005)
